# Measured values reported in ChEMBL document CHEMBL6134891, “Thienopyrimidinone Derivatives as a GluN2B/C/D Biased, Positive Allosteric Modulator of the N-Methyl-d-Aspartate Receptor” (J Med Chem, 2025).
# The chains behind the UniProt entries cited, without tags or fusion partners. Where a name states a change or a piece, a line headed by the entry shows the natural chain unless it says otherwise.
# UniProt Q00960, whole entry, looked up: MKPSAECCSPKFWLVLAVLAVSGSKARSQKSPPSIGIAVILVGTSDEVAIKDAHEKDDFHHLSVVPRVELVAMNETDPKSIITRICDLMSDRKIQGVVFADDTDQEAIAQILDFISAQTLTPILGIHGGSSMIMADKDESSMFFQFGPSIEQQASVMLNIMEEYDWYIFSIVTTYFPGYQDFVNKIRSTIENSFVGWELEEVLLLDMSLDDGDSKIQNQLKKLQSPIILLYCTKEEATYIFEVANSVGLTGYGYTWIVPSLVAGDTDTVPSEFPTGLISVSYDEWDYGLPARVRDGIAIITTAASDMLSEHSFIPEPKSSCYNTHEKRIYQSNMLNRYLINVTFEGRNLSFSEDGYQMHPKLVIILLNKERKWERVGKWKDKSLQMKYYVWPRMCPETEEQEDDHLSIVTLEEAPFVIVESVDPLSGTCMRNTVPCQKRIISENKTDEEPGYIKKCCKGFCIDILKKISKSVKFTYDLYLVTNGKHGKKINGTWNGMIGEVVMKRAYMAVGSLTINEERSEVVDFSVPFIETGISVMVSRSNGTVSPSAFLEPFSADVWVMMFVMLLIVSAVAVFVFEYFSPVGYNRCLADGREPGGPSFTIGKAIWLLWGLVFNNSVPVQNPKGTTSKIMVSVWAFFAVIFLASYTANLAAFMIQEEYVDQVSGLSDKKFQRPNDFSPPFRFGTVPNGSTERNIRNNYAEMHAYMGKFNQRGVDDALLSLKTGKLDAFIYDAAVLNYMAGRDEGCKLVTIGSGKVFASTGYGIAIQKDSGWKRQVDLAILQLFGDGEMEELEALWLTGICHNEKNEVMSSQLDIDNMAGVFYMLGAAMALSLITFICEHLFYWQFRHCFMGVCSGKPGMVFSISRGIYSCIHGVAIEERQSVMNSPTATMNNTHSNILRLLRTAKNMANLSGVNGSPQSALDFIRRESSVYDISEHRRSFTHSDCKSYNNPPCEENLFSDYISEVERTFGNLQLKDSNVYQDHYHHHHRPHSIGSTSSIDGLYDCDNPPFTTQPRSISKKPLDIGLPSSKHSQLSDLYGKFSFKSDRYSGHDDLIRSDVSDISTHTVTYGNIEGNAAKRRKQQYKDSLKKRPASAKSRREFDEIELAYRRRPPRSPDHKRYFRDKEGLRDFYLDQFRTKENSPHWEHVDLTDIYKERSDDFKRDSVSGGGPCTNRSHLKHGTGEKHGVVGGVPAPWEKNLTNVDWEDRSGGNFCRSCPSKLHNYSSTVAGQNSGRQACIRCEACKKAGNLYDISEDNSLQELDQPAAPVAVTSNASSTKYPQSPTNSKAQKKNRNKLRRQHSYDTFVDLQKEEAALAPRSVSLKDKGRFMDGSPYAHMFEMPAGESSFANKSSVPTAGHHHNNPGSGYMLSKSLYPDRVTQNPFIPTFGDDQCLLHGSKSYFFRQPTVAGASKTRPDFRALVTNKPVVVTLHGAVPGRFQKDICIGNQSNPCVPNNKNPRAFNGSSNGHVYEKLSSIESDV
# UniProt Q00961: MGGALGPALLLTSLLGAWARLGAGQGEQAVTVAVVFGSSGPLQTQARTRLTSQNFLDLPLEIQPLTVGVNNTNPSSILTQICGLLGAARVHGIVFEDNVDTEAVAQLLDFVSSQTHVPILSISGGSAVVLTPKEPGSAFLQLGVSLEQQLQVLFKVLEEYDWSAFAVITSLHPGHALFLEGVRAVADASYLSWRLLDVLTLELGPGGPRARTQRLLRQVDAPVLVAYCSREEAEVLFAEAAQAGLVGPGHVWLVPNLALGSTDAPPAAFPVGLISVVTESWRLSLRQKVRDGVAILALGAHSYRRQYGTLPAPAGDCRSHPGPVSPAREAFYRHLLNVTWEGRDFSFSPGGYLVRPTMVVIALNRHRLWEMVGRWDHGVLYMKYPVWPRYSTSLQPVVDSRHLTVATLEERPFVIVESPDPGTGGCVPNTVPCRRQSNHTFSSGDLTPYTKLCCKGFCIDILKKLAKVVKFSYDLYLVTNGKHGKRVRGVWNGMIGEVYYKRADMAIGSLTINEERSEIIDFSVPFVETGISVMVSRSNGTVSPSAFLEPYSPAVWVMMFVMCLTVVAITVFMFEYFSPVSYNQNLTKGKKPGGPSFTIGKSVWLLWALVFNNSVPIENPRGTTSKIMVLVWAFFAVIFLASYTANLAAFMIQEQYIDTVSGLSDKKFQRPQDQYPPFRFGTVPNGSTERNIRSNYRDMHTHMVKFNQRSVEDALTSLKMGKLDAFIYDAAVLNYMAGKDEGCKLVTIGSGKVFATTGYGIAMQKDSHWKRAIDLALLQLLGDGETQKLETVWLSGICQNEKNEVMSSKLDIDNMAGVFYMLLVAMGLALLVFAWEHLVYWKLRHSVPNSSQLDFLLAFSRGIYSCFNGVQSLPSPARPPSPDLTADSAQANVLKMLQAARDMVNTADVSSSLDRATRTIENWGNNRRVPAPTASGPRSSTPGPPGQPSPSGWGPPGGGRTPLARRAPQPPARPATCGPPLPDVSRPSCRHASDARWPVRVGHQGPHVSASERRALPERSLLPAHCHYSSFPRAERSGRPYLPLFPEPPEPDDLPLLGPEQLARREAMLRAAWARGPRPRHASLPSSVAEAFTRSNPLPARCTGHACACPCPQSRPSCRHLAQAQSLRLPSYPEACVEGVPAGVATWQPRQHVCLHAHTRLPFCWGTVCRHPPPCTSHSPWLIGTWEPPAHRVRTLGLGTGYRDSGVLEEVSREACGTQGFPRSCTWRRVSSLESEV
# UniProt Q62645, whole entry: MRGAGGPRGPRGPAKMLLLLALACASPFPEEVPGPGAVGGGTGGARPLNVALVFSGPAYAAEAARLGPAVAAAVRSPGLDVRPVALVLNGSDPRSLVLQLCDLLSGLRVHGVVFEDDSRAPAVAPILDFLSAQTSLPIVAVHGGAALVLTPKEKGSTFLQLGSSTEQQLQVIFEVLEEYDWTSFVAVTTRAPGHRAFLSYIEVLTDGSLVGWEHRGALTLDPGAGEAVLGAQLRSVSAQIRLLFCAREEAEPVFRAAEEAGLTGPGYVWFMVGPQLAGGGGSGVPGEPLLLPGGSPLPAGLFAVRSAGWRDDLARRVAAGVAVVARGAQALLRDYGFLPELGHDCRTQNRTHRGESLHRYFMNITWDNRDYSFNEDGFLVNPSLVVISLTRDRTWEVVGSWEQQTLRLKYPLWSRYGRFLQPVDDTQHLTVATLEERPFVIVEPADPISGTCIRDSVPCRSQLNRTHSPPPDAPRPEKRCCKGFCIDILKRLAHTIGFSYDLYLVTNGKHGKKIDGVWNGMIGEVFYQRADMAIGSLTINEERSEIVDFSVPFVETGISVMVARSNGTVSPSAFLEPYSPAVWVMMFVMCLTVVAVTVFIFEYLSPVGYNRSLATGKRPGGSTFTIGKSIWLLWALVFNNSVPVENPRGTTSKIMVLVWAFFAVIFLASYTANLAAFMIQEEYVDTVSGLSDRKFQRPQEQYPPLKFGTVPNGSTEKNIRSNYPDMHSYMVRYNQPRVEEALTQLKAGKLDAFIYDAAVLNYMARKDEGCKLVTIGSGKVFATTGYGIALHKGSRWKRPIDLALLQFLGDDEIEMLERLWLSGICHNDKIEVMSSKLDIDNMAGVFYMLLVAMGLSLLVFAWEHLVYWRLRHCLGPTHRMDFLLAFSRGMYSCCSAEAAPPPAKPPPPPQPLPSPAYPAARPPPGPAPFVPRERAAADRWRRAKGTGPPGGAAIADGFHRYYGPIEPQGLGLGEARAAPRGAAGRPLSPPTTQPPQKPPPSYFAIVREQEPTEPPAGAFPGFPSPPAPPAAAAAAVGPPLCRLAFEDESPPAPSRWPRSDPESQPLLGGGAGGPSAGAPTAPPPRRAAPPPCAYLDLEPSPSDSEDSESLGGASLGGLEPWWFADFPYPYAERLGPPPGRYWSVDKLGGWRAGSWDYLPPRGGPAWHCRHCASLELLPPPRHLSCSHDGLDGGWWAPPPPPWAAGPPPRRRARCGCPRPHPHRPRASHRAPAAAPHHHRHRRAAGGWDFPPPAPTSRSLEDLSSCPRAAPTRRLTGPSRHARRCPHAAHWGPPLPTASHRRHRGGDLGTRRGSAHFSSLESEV
# Key:
# [1] = biological target: Glutamate receptor ionotropic, NMDA 2B (Rattus norvegicus) (UniProt Q00960); conditions: Oocyte, filed as positive allosteric modulator
# [2] = biological target: Glutamate receptor ionotropic, NMDA 2C (Rattus norvegicus) (UniProt Q00961); conditions: Oocyte, filed as positive allosteric modulator
# [3] = biological target: Glutamate receptor ionotropic, NMDA 2D (Rattus norvegicus) (UniProt Q62645); conditions: Oocyte, filed as positive allosteric modulator
# [4] = Kinetic solubility of compound in PBS at pH 7.3 by nephelometry
# [5] = Stability in human plasma assessed as half life
# [6] = Stability in mouse plasma assessed as half life
# [7] = Stability in rat plasma assessed as half life
# [8] = Apparent permeability in MDCK-MDR1 cells; conditions: dog
# [9] = Half life in Sprague-Dawley rat at 1 mg/kg, iv; conditions: in vivo
# [10] = Clearance in Sprague-Dawley rat at 1 mg/kg, iv; conditions: in vivo
# [11] = Volume of distribution at steady state in Sprague-Dawley rat at 1 mg/kg, iv; conditions: in vivo
# [12] = Half life in Sprague-Dawley rat at 10 mg/kg, po; conditions: in vivo
# in vivo [13] = conditions: Sprague-Dawley, rat, brain, iv, 1 mg/kg
# in vivo [14] = conditions: Sprague-Dawley, rat, plasma, iv, 1 mg/kg
# in vivo [15] = conditions: Sprague-Dawley, rat, ip, 10 mg/kg
# in vivo [16] = conditions: Sprague-Dawley, rat, ip, 10 mg/kg; remark: listed apart in the source
# in vivo [17] = conditions: Sprague-Dawley, rat, brain, ip, 10 mg/kg
# in vivo [18] = conditions: Sprague-Dawley, rat, plasma, ip, 10 mg/kg
# in vivo [19] = conditions: Sprague-Dawley, rat, po, 10 mg/kg
# in vivo [20] = conditions: Sprague-Dawley, rat, brain, po, 10 mg/kg
# in vivo [21] = conditions: Sprague-Dawley, rat, plasma, po, 10 mg/kg
# in vivo [22] = conditions: C57BL/6, mouse, ip, 10 mg/kg
# in vivo [23] = conditions: C57BL/6, mouse, ip, 10 mg/kg; remark: listed apart in the source
# in vivo [24] = conditions: C57BL/6, mouse, brain, ip, 10 mg/kg
# in vivo [25] = conditions: C57BL/6, mouse, plasma, ip, 10 mg/kg
# in vivo [26] = conditions: Sprague-Dawley, rat, plasma, po, 10 mg/kg; remark: listed apart in the source
# in vitro [27] = conditions: human, liver microsomes
# in vitro [28] = conditions: Sprague-Dawley, rat, liver microsomes
# in vitro [29] = conditions: human, hepatocytes
# [30] = biological target: Glutamate receptor ionotropic, NMDA 2B (Rattus norvegicus) (UniProt Q00960); conditions: Oocyte, filed as positive allosteric modulator; remark: listed apart in the source
# [31] = biological target: Glutamate receptor ionotropic, NMDA 2C (Rattus norvegicus) (UniProt Q00961); conditions: Oocyte, filed as positive allosteric modulator; remark: listed apart in the source
# [32] = biological target: Glutamate receptor ionotropic, NMDA 2D (Rattus norvegicus) (UniProt Q62645); conditions: Oocyte, filed as positive allosteric modulator; remark: listed apart in the source
smiles,measurement,setting,value
CCc1sc2ncn(CC(=O)N3CC(C)(F)C3)c(=O)c2c1-c1ccc(F)c(Br)c1,EC200,[1],0.76 µM
same,EC200,[2],0.49 µM
same,EC200,[3],0.64 µM
Cc1sc2ncn(CC(=O)N3CC(F)(C4CC4)C3)c(=O)c2c1-c1cccc(Br)c1,EC200,[1],6.3 µM
same,EC200,[2],1.6 µM
same,EC200,[3],1.4 µM
Cc1sc2ncn(CC(=O)N3CC(C)(F)C3)c(=O)c2c1-c1cccc(Br)c1,EC200,[1],0.6 µM
same,EC200,[2],0.52 µM
same,EC200,[3],0.49 µM
Cc1sc2ncn(CC(=O)N3CCC(C)C3)c(=O)c2c1-c1cccc(Br)c1 (stereo not drawn),EC200,[1],7.8 µM
same,EC200,[2],1.6 µM
same,EC200,[3],2.1 µM
Cc1sc2ncn(CC(=O)N3CC(C)(F)C3)c(=O)c2c1-c1ccc(F)c(Br)c1,EC200,[1],0.55 µM
same,EC200,[2],0.36 µM
same,EC200,[3],0.26 µM
Cc1sc2ncn(CC(=O)N3CC(C)(F)C3)c(=O)c2c1-c1ccc2ccccc2c1,EC200,[1],0.86 µM
same,EC200,[2],1 µM
same,EC200,[3],1.4 µM
Cc1sc2ncn(CC(=O)N3CC(C)(F)C3)c(=O)c2c1-c1cc(F)cc(Cl)c1,EC200,[1],1.6 µM
same,EC200,[2],1.9 µM
same,EC200,[3],1.3 µM
Cc1sc2ncn(CC(=O)N3CCC[C@H]3C)c(=O)c2c1-c1cccc(Br)c1,EC200,[1],18 µM
same,EC200,[2],8.8 µM
same,EC200,[3],11 µM
CC1(F)CN(C(=O)Cn2cnc3sc(C#N)c(-c4ccc(F)c(Br)c4)c3c2=O)C1,EC200,[1],0.26 µM
same,EC200,[2],0.18 µM
same,EC200,[3],0.23 µM
Cc1sc2ncn(CC(=O)N3CCC(C)(F)C3)c(=O)c2c1-c1cccc(Br)c1 (stereo not drawn),EC200,[1],3.5 µM
same,EC200,[2],2.1 µM
same,EC200,[3],2.5 µM
Cc1sc2ncn(CC(=O)N3CC(C)(F)C3)c(=O)c2c1-c1ccc(F)c(C(F)(F)F)c1,EC200,[1],2.2 µM
same,EC200,[2],0.45 µM
same,EC200,[3],0.4 µM
Cc1sc2ncn(CC(=O)N3CC(C)(F)C3)c(=O)c2c1-c1ccc(Cl)c(Cl)c1,EC200,[1],0.28 µM
same,EC200,[2],0.33 µM
same,EC200,[3],0.22 µM
Cc1sc2ncn(CC(=O)N3CC(C)(F)C3)c(=O)c2c1-c1cccc(Cl)c1,EC200,[1],1.2 µM
same,EC200,[2],0.68 µM
same,EC200,[3],0.82 µM
CC1(F)CN(C(=O)Cn2cnc3sc(C(F)(F)F)c(-c4ccc(F)c(Br)c4)c3c2=O)C1,EC200,[1],0.85 µM
same,EC200,[2],0.6 µM
same,EC200,[3],0.68 µM
Cc1sc2ncn(CC(=O)N3CC(F)C3)c(=O)c2c1-c1cccc(Br)c1,EC200,[1],14 µM
same,EC200,[2],8.9 µM
same,EC200,[3],11 µM
C#Cc1sc2ncn(CC(=O)N3CC(C)(F)C3)c(=O)c2c1-c1ccc(F)c(Br)c1,solubility kinetic,[4],40 µM
same,half-life,[5],> 4 h
same,half-life,[6],> 4 h
same,half-life,[7],> 4 h
same,Papp,[8],15.3 ×10⁻⁶ cm/s
same,half-life,[9],0.8 h
same,clearance,[10],78.8 mL/min/kg
same,Vd,[11],3.7 L/kg
same,half-life,[12],6.4 h
same,EC200,[1],0.29 µM
same,EC200,[2],0.34 µM
same,EC200,[3],0.21 µM
same,Cmax,in vivo [13],223 ng/mL
same,Cmax,in vivo [14],289 ng/mL
same,half-life,in vivo [15],2.8 h
same,CL/F,in vivo [16],49.7 mL/min/kg
same,Cmax,in vivo [17],666 ng/mL
same,Cmax,in vivo [18],1050 ng/mL
same,CL/F,in vivo [19],76.8 mL/min/kg
same,Cmax,in vivo [20],117 ng/mL
same,Cmax,in vivo [21],198 ng/mL
same,half-life,in vivo [22],0.9 h
same,CL/F,in vivo [23],52.8 mL/min/kg
same,Cmax,in vivo [24],894 ng/mL
same,Cmax,in vivo [25],2860 ng/mL
same,bioavailability,in vivo [26],58%
same,"microsomal CLint at 0.5 h, 3 µM",in vitro [27],4 µL/min/mg
same,"microsomal CLint at 0.5 h, 3 µM",in vitro [28],12.4 µL/min/mg
same,CLint scaled,in vitro [29],4.2 mL/min/kg
CC1(F)CN(C(=O)Cn2cnc3scc(-c4ccc(F)c(Br)c4)c3c2=O)C1,EC200,[1],0.49 µM
same,EC200,[2],0.22 µM
same,EC200,[3],0.28 µM
Cc1sc2ncn(CC(=O)N3CCC3)c(=O)c2c1-c1cccc(Br)c1,EC200,[1],20 µM
same,EC200,[2],23 µM
Cc1sc2ncn(CC(=O)N3CC(C)(F)C3)c(=O)c2c1-c1ccc2ccn(C)c2c1,EC200,[1],2.6 µM
same,EC200,[2],3.1 µM
same,EC200,[3],3.7 µM
Cc1sc2ncn(CC(=O)N3CC(C)(F)C3)c(=O)c2c1-c1cccc(OC(F)(F)F)c1,EC200,[1],1 µM
same,EC200,[2],0.83 µM
same,EC200,[3],0.57 µM
Cc1sc2ncn(CC(=O)N3CC(C)(F)C3)c(=O)c2c1-c1ccc(F)c(C#N)c1,EC200,[1],1.1 µM
same,EC200,[2],0.73 µM
same,EC200,[3],0.65 µM
Cc1sc2ncn(CC(=O)N3CCC[C@@H]3C)c(=O)c2c1-c1cccc(Br)c1,EC200,[1],34 µM
same,EC200,[2],9.7 µM
same,EC200,[3],11 µM
Cc1sc2ncn(CC(=O)N3CC[C@H](F)C3)c(=O)c2c1-c1cccc(Br)c1,EC200,[1],3.8 µM
same,EC200,[2],2 µM
same,EC200,[3],2.6 µM
Cc1sc2ncn(CC(=O)N3CC(C)(F)C3)c(=O)c2c1-c1ccc2c(c1)OC(F)(F)O2,EC200,[1],1.8 µM
same,EC200,[2],2.5 µM
same,EC200,[3],2.7 µM
Cc1sc2ncn(CC(=O)N3CC(C)(C)C3)c(=O)c2c1-c1cccc(Br)c1,EC200,[1],5.3 µM
same,EC200,[2],2.9 µM
same,EC200,[3],3 µM
Cc1sc2ncn(CC(=O)N3CCC(F)(F)C3)c(=O)c2c1-c1cccc(Br)c1,EC200,[1],2.2 µM
same,EC200,[2],2 µM
same,EC200,[3],2.6 µM
Cc1sc2ncn(CC(=O)N3CC(C)(F)C3)c(=O)c2c1-c1ccc(F)c(OC(C)C)c1,EC200,[1],1 µM
same,EC200,[2],0.78 µM
same,EC200,[3],0.83 µM
CC1(F)CN(C(=O)Cn2cnc3sc([N+](=O)[O-])c(-c4ccc(F)c(Br)c4)c3c2=O)C1,EC200,[1],8.3 µM
same,EC200,[2],4.4 µM
same,EC200,[3],4.8 µM
Cc1sc2ncn(CC(=O)N3CC(C)C3)c(=O)c2c1-c1cccc(Br)c1,EC200,[1],18 µM
same,EC200,[2],2.7 µM
same,EC200,[3],4.6 µM
Cc1sc2ncn(CC(=O)N3CC[C@@H](F)C3)c(=O)c2c1-c1cccc(Br)c1,EC200,[1],9 µM
same,EC200,[2],4.8 µM
same,EC200,[3],6.1 µM
CCCC1(F)CN(C(=O)Cn2cnc3sc(C)c(-c4cccc(Br)c4)c3c2=O)C1,EC200,[2],27 µM
same,EC200,[3],12 µM
CCC1(F)CN(C(=O)Cn2cnc3sc(C)c(-c4cccc(Br)c4)c3c2=O)C1,EC200,[1],1.1 µM
same,EC200,[2],0.69 µM
same,EC200,[3],0.83 µM
Cc1sc2ncn(CC(=O)N3CCCC3)c(=O)c2c1-c1cccc(Br)c1,EC200,[30],12 µM
same,EC200,[31],6.2 µM
same,EC200,[32],6.6 µM
Cc1sc2ncn(CC(=O)N3CC(C)(F)C3)c(=O)c2c1-c1cccc(Cl)c1F,EC200,[1],1.9 µM
same,EC200,[2],1.2 µM
same,EC200,[3],1.2 µM
Cc1sc2ncn(CC(=O)N3CC(C)(F)C3)c(=O)c2c1-c1ccc(Cl)c(F)c1,EC200,[1],1.6 µM
same,EC200,[2],1 µM
same,EC200,[3],0.93 µM
Cc1sc2ncn(CC(=O)N3CC(C)(F)C3)c(=O)c2c1-c1cccc(C(F)(F)F)c1,EC200,[1],1.7 µM
same,EC200,[2],0.66 µM
same,EC200,[3],0.61 µM
Cc1sc2ncn(CC(=O)N3CC(C)(F)C3)c(=O)c2c1-c1ccc(F)c(Cl)c1,EC200,[1],0.47 µM
same,EC200,[2],0.33 µM
same,EC200,[3],0.21 µM
Cc1sc2ncn(CC(=O)N3CC(C)(F)C3)c(=O)c2c1-c1cc(Cl)ccc1F,EC200,[1],1.9 µM
same,EC200,[2],0.83 µM
same,EC200,[3],0.88 µM
